Experiments:
BRD4-1 = BRD4-1 (Homo sapiens (Human), UniProt O60885); assay: BRD4 region 1 (BRD4-1) inhibition; assay type: biochemical; conditions: read-out: BRD4-1 IC50
BRD4-2 = BRD4-2 (Homo sapiens (Human), UniProt O60885); assay: BRD4 region 2 (BRD4-2) inhibition; assay type: biochemical; conditions: read-out: BRD4-2 IC50

## Cc1nnc(-c2ccc(-c3csc4c(=O)cc(N5CCOCC5)oc34)cc2)o1
BRD4-1
  IC50: 5.48 µM
BRD4-2
  IC50: 11.6 µM
